Values of other authors, collected in patent US4315942A, “Intravenously administrable iron supplement” (New England Medical Center, Inc., priority 1979, dated 1982).

Conditions: in vivo, cited from earlier work

For iron dextran, the anaphylaxis (iv) is given as “unacceptable incidence of anaphylaxis” and the “pain on intramuscular injection” value is given as “painful”.
